Data published in publication PMC2225448.

Chains of the proteins cited; added tags and fusions are not shown. Lines headed by an entry give the natural chain unless they say otherwise; changes in a name come on top.
UniProt Q8WXH5: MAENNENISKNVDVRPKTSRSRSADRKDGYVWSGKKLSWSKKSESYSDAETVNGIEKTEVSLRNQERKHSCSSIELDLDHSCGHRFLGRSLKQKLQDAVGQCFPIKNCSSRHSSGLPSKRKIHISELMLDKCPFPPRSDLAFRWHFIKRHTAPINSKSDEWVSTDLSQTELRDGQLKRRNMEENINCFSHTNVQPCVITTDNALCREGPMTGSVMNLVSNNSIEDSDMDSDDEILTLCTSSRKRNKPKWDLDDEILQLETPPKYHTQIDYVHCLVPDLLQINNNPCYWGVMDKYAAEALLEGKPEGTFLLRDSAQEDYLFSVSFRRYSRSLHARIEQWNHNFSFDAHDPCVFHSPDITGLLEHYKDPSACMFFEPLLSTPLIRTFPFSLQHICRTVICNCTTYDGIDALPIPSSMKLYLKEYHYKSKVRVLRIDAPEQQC

Target: EGFR pY1069 peptide pY1069 (Homo sapiens) (UniProt P00533)
Assay: ITC

Substance: SOCS4/ElonginB/C (from UniProt Q8WXH5)
- Kd: > 10 µM
